{"source": "patent US8440627B2", "about": "“G protein coupled receptor agonists and antagonists and methods of use” (Tufts Medical Center, Inc., priority 2004, dated 2013)", "key": {"thrombin": {"biological_target": "thrombin (Homo sapiens, UniProt P00734)", "conditions": "cited from earlier work"}, "[1]": {"test_system": "carotid arteries in guinea pigs", "test": "Carotid artery injury (FeCl3) arterial thrombosis model", "assay_type": "in vivo", "conditions": "0.18 mg/kg; from 13 min; not significant", "description": "FIG. 26 is a bar graph illustrating a combination of bivalirudin plus P4pal-i1 blocking occlusion of carotid arteries in guinea pigs. Guinea pigs were treated with bivalirudin, P4pal-i1 and/or P1pal-7 (n=3-5 for each treatment group) 5 min prior to injury of the carotid artery with FeCl3 as described in Example 14. P values relative to vehicle-treated are indicated at the bottom.\nArterial thrombosis in guinea pigs is prevented using a combination of bivalirudin and a PAR4 pepducin. A standard carotid artery injury model to assess the efficacy of simultaneous administration of bivalirudin and the PAR4 pepducin on arterial thrombosis in guinea pigs was used. Unlike mice which lack PAR1 on their platelets, guinea pigs share functional similarity with human platelets and express both PAR1 and PAR4. Consistent with earlier results using hirudin, bivalirudin alone (0.18 mg/kg) prolonged the mean arterial occlusion time from 13 min to 20 min, though this was not significant (FIG. 26)."}, "human platelets": {"test_system": "human platelets", "test": "Human platelet aggregation to thrombin", "assay_type": "cell-based"}}}
{"smiles": "CC[C@H](C)[C@H](NC(=O)[C@H](CCC(=O)O)NC(=O)[C@H](CCC(=O)O)NC(=O)[C@H](Cc1ccccc1)NC(=O)[C@H](CC(=O)O)NC(=O)CNC(=O)[C@H](CC(N)=O)NC(=O)CNC(=O)CNC(=O)CNC(=O)CNC(=O)[C@@H]1CCCN1C(=O)[C@H](CCCNC(=N)N)NC(=O)[C@@H]1CCCN1C(=O)[C@H](N)Cc1ccccc1)C(=O)N1CCC[C@H]1C(=O)N[C@@H](CCC(=O)O)C(=O)N[C@@H](CCC(=O)O)C(=O)N[C@@H](Cc1ccc(O)cc1)C(=O)N[C@@H](CC(C)C)C(=O)O", "note": "[bivalirudin]", "values": [{"measurement": "affinity for thrombin", "setting": "thrombin", "value": "nanomolar affinity"}, {"measurement": "mean arterial occlusion time", "setting": "[1]", "value": 20, "unit": "min"}, {"measurement": "thrombin activation of PAR1 and PAR4-dependent platelet aggregation", "setting": "human platelets", "value": "efficacious in blocking thrombin activation"}]}
